## Apparent affinities of Ab-95 variants for a coronavirus HR2 peptide

Target peptide (SARS-CoV-2 spike, HR2 region): PDVDLGDISGINAS

The variants keep the heavy chain, the linker and the frameworks of Ab-95 (scFv order VH, a 15-residue (Gly4Ser)3 linker, VL).
VH: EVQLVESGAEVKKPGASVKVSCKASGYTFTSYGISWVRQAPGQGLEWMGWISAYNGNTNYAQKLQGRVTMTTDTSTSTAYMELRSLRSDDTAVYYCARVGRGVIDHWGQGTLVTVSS
VL: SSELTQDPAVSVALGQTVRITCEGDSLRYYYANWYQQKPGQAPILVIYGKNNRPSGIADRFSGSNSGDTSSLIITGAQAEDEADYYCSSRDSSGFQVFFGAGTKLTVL

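Phage display of a naive human antibody library on the peptide gave the parent. In library AAYL52, one, two or three CDR residues were substituted; doubles and triples were drawn at random. In AlphaSeq, yeast of one mating type display the scFv and yeast of the other type display the target. Mating (16 h, 30 °C) was followed by selection of diploids and sequencing of their barcodes. Each replicate has its own calibration line, from reference interactions of the BCL2 family. Each pool was mated in three replicate cultures.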

Variants are written as CDR1, CDR2 and CDR3 of the light chain (limits as in the source). Parent: EGDSLRYYYAN, GKNNRPS, SSRDSSGFQVF.
The read-out is the apparent dissociation constant on a log10 scale (nM): the lower, the stronger.
"nd" marks a missing value. The strain was present, yet no cells mated with the target were sequenced in that replicate, which points to weak or no binding.

CDR-L1 | CDR-L2 | CDR-L3 | log10 Kd (nM) by replicate | control signals
EVDLLRYYYAN | GKNNRPS | SSRGSSGFQVF | 3.94 / 3.12 / 3.53 | 3/9 (4.33)
EGDSLRYYPAN | IKNRRPS | SSRDSSGFQVF | 4.62 / 4.38 / nd | 1/9 (3.55)
EGDSLRYYYAW | GKNNRPS | CSRDSSGFQMF | nd / nd / nd | 0/9
EGDSLRYYYAN | GGNNRPS | SERDSSGFQVG | 2.41 / 2.11 / 2.49 | 4/9 (4.32)
EGDSLRYYGAN | GKNLRHS | SSRDSSGFQVF | 3.35 / 2.76 / 2.10 | 3/9 (3.79)
EGASLRYKYAN | GKNNRPS | SSRDSSVFQVF | 2.91 / 3.33 / 3.74 | 2/9 (3.92)
EGDSLRYYYAN | GKNNRPH | SCRDSSGFVVF | 2.40 / 3.15 / 3.51 | 1/9 (4.96)
EGDSLRYYYAN | GKGNDPS | SHRDSSGFQVF | nd / 3.53 / nd | 1/9 (3.47)
EGDSLRSYYAN | GVNNRPS | SSRDSHGFQVF | 2.90 / 2.55 / 3.17 | 3/9 (3.86)
EGDSLLYYSAQ | GKNNRPS | SSRDSSGFQVF | 2.92 / 2.67 / 2.66 | 3/9 (4.07)
EGDSLRYYYAN | GKNNRPS | SSRSSSAFQVF | nd / 3.46 / 4.40 | 2/9 (4.73)
EGDSLRYYHAN | GKNNRVS | SSRDSSGFQVQ | 2.77 / 2.94 / 2.46 | 2/9 (3.51)
EGDDLMYYYAN | GKNWRPS | SSRDSSGFQVF | 3.50 / 2.74 / 3.58 | 2/9 (4.10)
EGDSLRYVYAN | GKNNHPS | GSRDSSGFQVF | 3.66 / nd / nd | 1/9 (2.96)
EGDSLRYYYAN | GKNNRPS | SSRDSSGFQVR | nd / 3.53 / 2.71 | 1/9 (5.31)
EGDSTRYYYAN | GKNNTPS | SSRDSSIFQVF | 4.20 / 4.20 / nd | 2/9 (3.99)
EGDSLRYYYAN | GKNNRMY | SSRDSSGFQVF | 2.88 / 3.16 / 3.35 | 3/9 (4.42)
EGDSLRYYEAN | GKNNRPS | SSPDSSGFQVR | nd / 4.00 / nd | 2/9 (3.78)
EGDSLRYYYAN | GKNHRPS | KSRDSSGFQVF | 3.75 / 4.31 / 3.86 | 2/9 (4.41)
EGDSLLKSYAN | GKNNRPS | SSRDSSGFQVF | 0.83 / 0.97 / 0.21 | 2/9 (4.22)
EGDSNRYYYAN | GKNNRPF | SSRDSSGFQVF | 4.67 / 3.17 / nd | 6/9 (3.88)
EGDMERYYYAN | GKNNRPS | SSRDSSGFQVF | 2.40 / 2.39 / 2.98 | 2/9 (3.33)
EGDSLRYYYAN | GKNNRPS | SKDDSAGFQVF | 1.98 / 1.73 / 1.48 | 3/9 (3.75)
EGDSLRYYYAN | GKNNRPS | SSRDESGFFVR | 2.76 / 2.36 / 2.20 | 2/9 (3.47)
EGDSTRYKYAN | GKNNRPS | SSRDSSGFQCF | 3.21 / 3.32 / nd | 1/9 (4.16)
EGDSLRYYRAN | GKNNAPS | SSWDSSGFQVF | 3.14 / 2.50 / 2.68 | 2/9 (4.14)
EGDSLRIYYAN | GKMNRPS | SSRPSSGFQVF | 3.27 / 2.93 / 1.86 | 3/9 (4.22)
EGDSLRYYYAV | GKNNRPS | SSRESSGFQVS | 3.87 / 4.04 / 2.66 | 3/9 (4.20)
EGDLLRYYYAN | GKNNRPY | SSCDSSGFQVF | 3.69 / nd / nd | 1/9 (4.32)
EGDSTRYYYFN | GKNNRGS | SSRDSSGFQVF | 3.39 / 3.11 / 4.33 | 6/9 (3.79)
AGDSLRYYYAN | GWNNRKS | SSRDSSGFQVF | 3.33 / nd / nd | 3/9 (4.25)
EGDSWRYYYAN | GKNNRPS | SSRDSHGFQVP | 3.09 / 4.90 / nd | 0/9
EGDSLKYYYAN | GKNNRPS | STRDCSGFQVF | 4.14 / 2.89 / 3.56 | 2/9 (4.29)
EGDSLRYYHAN | GKNNRPS | SSRDCSFFQVF | 1.72 / 1.76 / 1.82 | 4/9 (4.07)
EGDSLRYYYAN | GKNNWPS | SSRWCSGFQVF | 3.23 / 4.34 / nd | 1/9 (5.41)

Top 2 of the variants detected in all replicates, tightest first:

CDR-L1 | CDR-L2 | CDR-L3 | log10 Kd (nM) by replicate | control signals
EGDSLLKSYAN | GKNNRPS | SSRDSSGFQVF | 0.83 / 0.97 / 0.21 | 2/9 (4.22)
EGDSLRYYYAN | GKNNRPS | SKDDSAGFQVF | 1.98 / 1.73 / 1.48 | 3/9 (3.75)

Empty control strains, which show no peptide, gave a signal in 28% of pairings with library AAYL52; the median was 3.91 and 95% of these signals were weaker than 2.90. No background was subtracted. For each scFv, signals with the empty controls are counted beside the result, with their mean in brackets.
For reference, the parent read 2.31 as the reference entry and 2.25 as a member of this library.

Reference: Engelhart et al. 2022, doi:10.1038/s41597-022-01779-4. File: FLAb, binding data.